The list shows a part of the results, in another mix than the full data. Calls of active or inactive are those of the source.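 Rule for the calls: active = inhibition above the plate cutoff, the mean of all test compounds on that plate plus 3 SD (cut at about 35% in these data); inactive = the rest.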

Usually inhibition stands for the change of the read-out against control, counted positive when it falls.

This assay in a line: small molecules binding CAG repeat RNA – biochemical, fluorescence, primary screen (AID 651821).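 Note: 0% = DMSO alone and 100% = 100 µM mitoxantrone as full dye displacement; higher means more dye released from RNA so lower well fluorescence.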 The settings on record: r(CAG) RNA repeat, TO-PRO-1 dye displacement fluorescence; at 3 µM; active compounds read high.
On to `CCN(/C(=N/P(=O)(N1CCOCC1)N1CCOCC1)N1CCOCC1)c1ccc(OC)cc1`, for which the inhibition is inactive: -7.71%.
Take `Nc1ccc([As](=O)(O)c2ccc(N)cc2)cc1`: the inhibition was inactive: -1.54%.
Then `C[N+]1=C2C=CC=CC=C2SC12C([N+](=O)[O-])=CC([N+](=O)[O-])=C[C-]2[N+](=O)[O-]` (stereo not drawn), with inactive: 33.9%; and `c1cc(-c2nn[nH]n2)ccc1-c1nn[nH]n1`, with inactive: 1.52%.
Consider `CC1CCN(C(=O)Oc2c(Cl)cc(Cl)c3cccnc23)CC1`, for which the inhibition is inactive: -7.56%.
To `CC(C)=N/N=C(\N)N[N+](=O)[O-]` belongs inactive: -3.72%; to `CC(C)c1nc(Nc2ccccc2)n(P(=O)(N(C)C)N(C)C)n1`, inactive: -2.21%; to `CN(C)C(=O)OCCc1n(C)cc[n+]1C`, inactive: -0.2%.
As to `COc1ccc(C2=NCC(CBr)S2)cc1` (stereo not drawn), the inhibition is inactive: 7.64%.
`Cc1ccc(NP(=O)(Oc2ccccc2)Oc2ccccc2)nc1`: the inhibition is inactive: -3.37%.
Then `O=[N+]([O-])c1cc([N+](=O)[O-])c(CCNc2ccccc2)c([N+](=O)[O-])c1`, with inactive: 26.9%.
Regarding `CCc1nc2c(n1)c1c(non1O)c1c2no[n+]1[O-]`, the inhibition was inactive: 2.33%.
As to `CC(=O)N1C2C3N(C(C)=O)C1C1N(C(C)=O)C(C(N1C(C)=O)N3C(C)=O)N2C(C)=O`, the inhibition was inactive: 5.06%.
To `O=[N+]([O-])c1cccc2n[nH]nc12` belongs inactive: -2.91%; to `O=[N+]([O-])c1ncn(CCn2ncnc2[N+](=O)[O-])n1`, inactive: 0.82%; to `CC(C)(C)C(=O)NC(Sc1ccncn1)C(Cl)(Cl)Cl` (stereo not drawn), inactive: -1.07%.
For the compound `O=C(O)CNc1ccc([As](=O)(O)O)cc1`, the inhibition is inactive: 1.85%.
Consider `O=[N+]([O-])c1cccc(NC2=NCC(CBr)S2)c1` (stereo not drawn), for which the inhibition was inactive: 4.7%.
Then `COC(=O)C1(C)COP(=O)(Nc2ccccc2)OC1` (stereo not drawn), with inactive: 3.3%; and `O=P1(N(CCCl)CCCl)OCCCS1` (stereo not drawn), with inactive: 1.63%.
On to `O=C(Nc1cc([As](=O)(O)O)ccc1O)c1ccccc1`, for which the inhibition was inactive: -2.21%.
As for `Nc1cccc2ccc([As](=O)(O)O)cc12`, the inhibition is inactive: -2.55%.
`CN(C(=O)Cc1ccccc1)C1CC[C@@]2(CCCO2)C[C@@H]1N1CCCC1` (stereo partly drawn): the inhibition is inactive: 3.58%.
Then `CCN(N=Nc1nonc1N)c1nonc1N`, with inactive: 1.89%; and `CN(C)P(=O)(N(C)C)n1c(Nc2ccccc2)nnc1-c1ccccc1`, with inactive: -1.17%; and `O=P(Nc1nc2ccc(Cl)cc2s1)(c1ccccc1)c1ccccc1`, with inactive: 10.6%.
To `O=C(O)c1ccccc1[As](=O)(O)O` belongs inactive: -1.85%; to `CC(=O)Nc1ccc([As](=O)(O)O)cc1`, inactive: -2.48%.

The record behind these values is PubChem BioAssay AID651821 (The Scripps Research Institute Molecular Screening Center, 2012).
